How the values were obtained:
[1] = target: recombinant human kappa opioid receptor (κ) (Homo sapiens (Human), UniProt P41145); test: κ-opioid receptor radioligand dose displacement binding assay ([3H]-U69,593); settings: read-out: Binding Affinity Opioid Receptor Ki (nM) [mean ± SEM] κ, tested form: TFA salt
Method: Membranes from HEK-293 cells, CHO or U-2 OS cells expressing the recombinant human kappa opioid receptor (κ) were prepared by lysing cells in ice cold hypotonic buffer (2.5 mM MgCl2, 50 mM HEPES, pH 7.4) (10 mL/10 cm dish) followed by homogenization with a tissue grinder/Teflon pestle. Membranes were collected by centrifugation at 30,000×g for 15 min at 4° C. and pellets were resuspended in hypotonic buffer to a final concentration of 1-3 mg/mL. Protein concentrations were determined using the BioRad protein assay reagent with bovine serum albumen as standard. Aliquots of κ receptor membranes were stored at −80° C.
Radioligand dose displacement assays used 0.4 nM [^3H]-U69,593 (GE Healthcare, Piscataway, N.J.; 40 Ci/mmole) with 15 μg membrane protein (recombinant κ opioid receptor expressed in HEK 293 cells; in-house prep) in a final volume of 200 μl binding buffer (5% DMSO, 50 mM Trizma base, pH 7.4). Non-specific binding was determined in the presence of 10 μM unlabeled naloxone or U69,593. All reactions were performed in 96-well polypropylene plates for 1 hour at a temperature of about 25° C. […] Fifty μl/well scintillation cocktail (Perkin Elmer, Shelton, Conn.) was added and plates were counted in a Packard Top-Count for 1 min/well. […]

The chains behind the UniProt entries cited, without tags or fusion partners.
UniProt P41145, whole entry: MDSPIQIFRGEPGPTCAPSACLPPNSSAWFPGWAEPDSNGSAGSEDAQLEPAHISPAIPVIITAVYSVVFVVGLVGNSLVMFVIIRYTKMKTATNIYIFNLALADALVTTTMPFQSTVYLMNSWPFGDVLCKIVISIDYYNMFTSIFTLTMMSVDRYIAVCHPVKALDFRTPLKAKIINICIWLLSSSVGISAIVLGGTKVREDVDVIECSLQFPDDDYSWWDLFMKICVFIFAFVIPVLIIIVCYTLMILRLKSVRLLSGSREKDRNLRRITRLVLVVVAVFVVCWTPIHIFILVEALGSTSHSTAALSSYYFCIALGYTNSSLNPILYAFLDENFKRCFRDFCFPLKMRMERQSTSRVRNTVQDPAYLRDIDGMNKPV
UniProt P35372, whole entry: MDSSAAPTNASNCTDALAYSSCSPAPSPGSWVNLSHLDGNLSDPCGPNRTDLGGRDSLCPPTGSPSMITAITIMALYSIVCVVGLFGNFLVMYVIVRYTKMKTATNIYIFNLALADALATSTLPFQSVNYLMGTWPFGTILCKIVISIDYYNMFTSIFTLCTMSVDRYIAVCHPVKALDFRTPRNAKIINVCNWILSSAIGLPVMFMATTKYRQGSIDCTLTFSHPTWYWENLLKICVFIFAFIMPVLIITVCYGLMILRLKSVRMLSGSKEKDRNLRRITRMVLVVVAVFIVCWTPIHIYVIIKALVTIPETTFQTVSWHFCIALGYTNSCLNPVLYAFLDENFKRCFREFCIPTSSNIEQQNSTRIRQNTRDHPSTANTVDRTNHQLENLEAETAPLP

μ-opioid receptors [2] = target: T1, μ-opioid receptors (Homo sapiens (Human), UniProt P35372); test: μ-opioid receptor radioligand dose-displacement binding assay ([3H]-diprenorphine); settings: read-out: Binding Affinity Opioid Receptor Ki (nM) [mean ± SEM] μ, tested form: TFA salt
Method: Radioligand dose-displacement binding assays for μ-opioid receptors used 0.3 nM [^3H]-diprenorphine (Perkin Elmer, Shelton, Conn.), with […] membrane protein/well in a final volume of 500 μl binding buffer (10 mM MgCl2, 1 mM EDTA, 5% DMSO, 50 mM HEPES, pH 7.4). Reactions were carried out in the absence or presence of increasing concentrations of unlabeled naloxone. All reactions were conducted in 96-deep well polypropylene plates for 2 hours at room temperature. […] BetaScint scintillation cocktail (Perkin Elmer, Shelton, Conn.) was added (50 μl/well), and plates were counted using a Packard Top-Count for 1 min/well. The data were analyzed using the one-site competition curve fitting functions in GraphPad PRISM™ v. […]
(§1) The following tables provide results on the efficacy of binding and activity response of exemplified Compounds of the Invention at the μ- and κ-opioid receptors. In TABLE 3, binding affinity of certain Compounds of the Invention to the μ- and κ-opioid receptors was determined as described above. In TABLE 4, activity response of certain Compounds of the Invention to the μ- and κ-opioid receptors was determined as described above for functional assays using HEK-293 cells. In TABLE 5, activity response of certain Compounds of the Invention to the μ- and κ-opioid receptors was determined as described above using U-2 OS cells.

μ-opioid receptors [3] = target: T1, μ-opioid receptors; test: μ-opioid receptor [35S]GTPγS functional assay, U-2 OS cells; format: biochemical; settings: read-out: Activity Response μ EC50 (nM) [mean ± SEM], μ GTP, tested form: TFA salt
Method: [^35S]GTPγS functional assays were conducted using freshly thawed μ-receptor membranes prepared from a cell line expressing recombinant μ opioid receptor in a HEK-293, CHO or U-2 OS cell background or purchased from a commercial source (Perkin Elmer, Shelton, Conn.; or DiscovRx, Fremont, Calif.). Assay reactions were prepared by sequentially adding the following reagents to binding buffer (100 mM NaCl, 10 mM MgCl2, 20 mM HEPES, pH 7.4) on ice (final concentrations indicated): membrane protein (0.026 mg/mL), saponin ([…]), GDP ([…]) and [^35S]GTPγS (0.20 nM; Perkin Elmer, Shelton, Conn.). […] BetaScint scintillation cocktail (Perkin Elmer, Shelton, Conn.) was added (50 μl/well) and plates were counted using a Packard Top-Count for 1 min/well. Data were analyzed using the sigmoidal dose-response curve fitting functions in GraphPad PRISM v. […]
as §1, with “In TABLE 5, activity response of certain Compounds of the Invention to the μ- and κ-opioid receptors was determined as described above using U-2 OS cells.” left out

κ opioid receptor = κ opioid receptor (Homo sapiens (Human), UniProt P41145); test: κ-opioid receptor [35S]GTPγS functional assay, U-2 OS cells; format: biochemical; settings: read-out: Activity Response κ EC50 (nM) [mean ± SEM], κ GTP, tested form: TFA salt

Question: For `COc1ccc2c(c1)C13CCN(CC4CC4)C(C2)C1(O)CC(OCc1ccccc1)C(=O)C3` (stereo not shown), which Ki [1] is on record?
Answer: The Ki was 249 nM.

Question: And the Ki (μ-opioid receptors [2])?
Answer: Its Ki is 668 nM.

Question: And the EC50 (μ-opioid receptors [3])?
Answer: The EC50 was 463 nM.

Question: And the EC50 (κ opioid receptor)?
Answer: Its EC50 is 317 nM.

From patent US9388162B2, “Substituted morphinans and the use thereof” (Purdue Pharma L.P., priority 2012, dated 2016)
